Test results: patent US12178805B2, “Inhibitors of PDE6Delta for use in the prevention and/or treatment of epilepsy and/or neurodegenerative disorders” (ReMYND N.V., priority 2017, dated 2024)

Biological target: recombinant PDE6δ (Homo sapiens, UniProt O43924)
Details: 20 μM compound

competition of the MFC-42826-PDE6δ interaction (response units) | SMILES
response units were decreased | O=C(NCCc1c[nH]c2ccc(F)cc12)c1cc(Cc2cc(F)ccc2F)on1 [Compound 6]
response units were decreased | O=C(NCCc1c[nH]c2ccc(Cl)cc12)c1cc(Cc2cc(F)ccc2F)on1 [Compound A]

SMILES | competition of the MFC-42826-PDE6δ interaction (response units)
CC(C)c1c(C(=O)Nc2ccccc2)c(-c2ccccc2)c(-c2ccc(F)cc2)n1CC[C@@H](O)C[C@@H](O)CC(=O)O [Atorvastatin, reference compound] | competed for the MFC-42826 interaction with PDE6δ
